The target of this assay is T1, human cloned 5-HT6 receptors (Homo sapiens, UniProt P50406).
T1 construct: expressed in transfected cells; host or cells: HeLa cells
The assay is described as follows: 5-HT6 binding affinity, [3H]-LSD displacement. As to conditions: membranes of Hela cells expressing human cloned 5-HT6 receptors; [3H]-LSD 3.0 nM; 120 minutes at room temperature. The method, then:
The affinity of test compounds for the serotonin 5-HT6 receptor was evaluated in the following manner. Cultured Hela cells expressing human cloned 5-HT6 receptors were harvested and centrifuged at low speed (1,000×g) for 10.0 minutes to remove the culture media. The harvested cells were suspended in half volume of fresh physiological phosphate buffered saline solution and recentrifuged at the same speed. This operation was repeated. The collected cells were then homogenized in ten volumes of 50 mM Tris.HCl (pH 7.4) and 0.5 mM EDTA. The homogenate was centrifuged at 40,000×g for 30.0 min and the precipitate was collected. The obtained pellet was resuspended in 10 volumes of Tris.HCl buffer and recentrifuged at the same speed. The final pellet was suspended in a small volume of Tris.HCl buffer and the tissue protein content was determined in aliquots of 10-25 μl volumes. […]
The bound complex caught on the filter disk was allowed to air dry and the radioactivity is measured in a Packard TopCount® equipped with six photomultiplier detectors, after the addition of 40.0 μl Microscint®-20 scintillant to each shallow well. The unifilter plate was heat-sealed and counted in a PackardTopCount® with a tritium efficiency of 31.0%.
Specific binding to the 5-HT6 receptor was defined as the total radioactivity bound less the amount bound in the presence of 10.0 μM unlabeled methiothepin. […]

Sequences of proteins named here, by UniProt entry; tags and fusion partners are left off.
UniProt P50406, whole entry: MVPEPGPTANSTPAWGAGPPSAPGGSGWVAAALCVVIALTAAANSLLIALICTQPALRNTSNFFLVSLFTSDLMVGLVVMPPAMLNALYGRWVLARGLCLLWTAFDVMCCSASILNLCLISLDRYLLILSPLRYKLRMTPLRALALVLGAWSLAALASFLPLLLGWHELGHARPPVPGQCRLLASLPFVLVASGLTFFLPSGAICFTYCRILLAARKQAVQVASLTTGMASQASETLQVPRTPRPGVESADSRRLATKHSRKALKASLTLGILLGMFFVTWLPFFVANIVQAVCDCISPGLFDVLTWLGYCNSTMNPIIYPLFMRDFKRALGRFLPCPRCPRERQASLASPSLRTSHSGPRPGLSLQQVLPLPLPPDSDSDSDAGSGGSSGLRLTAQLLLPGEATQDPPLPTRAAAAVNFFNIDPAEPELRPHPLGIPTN

Molecules are shown by their SMILES. pKi: −log10 of the molar value. Where a name gives a salt, the structure may show the parent alone.

As usually defined, the pKi is the Ki on a negative log10 scale, so that one unit is a factor of ten. Lower therefore signals a large Ki.

In turn, `CC(C)[C@H](N)CNc1ccc2[nH]nc(S(=O)(=O)c3cccc4ccccc34)c2c1` [Example 160, (S)-3-Methyl-N1-[3-(naphthalene-1-sulfonyl)-1H-indazol-5-yl]-butane-1,2-diamine dihydrochloride] had a pKi of 8.00 to 11.00.

The record behind these values is patent US7723329B2, “Substituted-3-sulfonylindazole derivatives as 5-hydroxytryptamine-6 ligands” (Wyeth LLC, priority 2005, dated 2010).
